The test system of this assay is IGF1R-sal, Colo205, RD1, HT-29, WiDr, GEO, MDA-PCa-2b, MCF-7, H3396, N-87, BT474, and SKBR3 cell lines. Description: Drug combination study (Dilution of Ratios) in cellular proliferation assays. The note with it: in vitro combination with compound 1, multiple cell lines, analyzed by Isobolograms.

“Also recorded” adds a separate entry of the source.

The values that follow come from patent US8492328B2, “Biomarkers and methods for determining sensitivity to insulin growth factor-1 receptor modulators” (Bristol-Myers Squibb Company, priority 2007, dated 2013).

For cetuximab, the “Combination Result” value is “synergistic effects; also recorded: Synergy”.
